Amino acid sequences for entries named in this document (tags omitted). Residues count along the entry.
UniProt P35372, whole entry: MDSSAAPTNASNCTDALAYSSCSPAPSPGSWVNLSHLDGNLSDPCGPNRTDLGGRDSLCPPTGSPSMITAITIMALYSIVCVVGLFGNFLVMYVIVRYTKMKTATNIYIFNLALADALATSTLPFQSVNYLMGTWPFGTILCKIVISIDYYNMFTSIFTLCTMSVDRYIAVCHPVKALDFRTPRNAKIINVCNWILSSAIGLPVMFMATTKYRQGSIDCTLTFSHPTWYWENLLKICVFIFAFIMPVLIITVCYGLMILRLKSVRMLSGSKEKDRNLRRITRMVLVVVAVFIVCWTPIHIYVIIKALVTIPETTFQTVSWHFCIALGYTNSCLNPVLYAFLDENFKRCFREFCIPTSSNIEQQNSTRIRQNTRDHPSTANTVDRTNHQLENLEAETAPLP
UniProt P11712, whole entry: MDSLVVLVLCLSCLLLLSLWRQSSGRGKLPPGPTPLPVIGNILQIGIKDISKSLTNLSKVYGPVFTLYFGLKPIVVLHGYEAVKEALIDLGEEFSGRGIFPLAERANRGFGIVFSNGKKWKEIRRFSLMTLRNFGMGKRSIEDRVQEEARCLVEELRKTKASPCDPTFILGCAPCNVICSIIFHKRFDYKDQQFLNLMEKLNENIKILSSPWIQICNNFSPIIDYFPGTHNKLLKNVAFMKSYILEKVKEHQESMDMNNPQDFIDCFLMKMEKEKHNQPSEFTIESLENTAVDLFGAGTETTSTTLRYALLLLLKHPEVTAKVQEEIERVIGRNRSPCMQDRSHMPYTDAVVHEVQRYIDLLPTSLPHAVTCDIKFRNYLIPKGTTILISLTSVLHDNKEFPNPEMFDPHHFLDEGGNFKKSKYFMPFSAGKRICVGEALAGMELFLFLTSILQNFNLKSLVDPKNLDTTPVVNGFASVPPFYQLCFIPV
UniProt P08684, 2-503 limits assumed: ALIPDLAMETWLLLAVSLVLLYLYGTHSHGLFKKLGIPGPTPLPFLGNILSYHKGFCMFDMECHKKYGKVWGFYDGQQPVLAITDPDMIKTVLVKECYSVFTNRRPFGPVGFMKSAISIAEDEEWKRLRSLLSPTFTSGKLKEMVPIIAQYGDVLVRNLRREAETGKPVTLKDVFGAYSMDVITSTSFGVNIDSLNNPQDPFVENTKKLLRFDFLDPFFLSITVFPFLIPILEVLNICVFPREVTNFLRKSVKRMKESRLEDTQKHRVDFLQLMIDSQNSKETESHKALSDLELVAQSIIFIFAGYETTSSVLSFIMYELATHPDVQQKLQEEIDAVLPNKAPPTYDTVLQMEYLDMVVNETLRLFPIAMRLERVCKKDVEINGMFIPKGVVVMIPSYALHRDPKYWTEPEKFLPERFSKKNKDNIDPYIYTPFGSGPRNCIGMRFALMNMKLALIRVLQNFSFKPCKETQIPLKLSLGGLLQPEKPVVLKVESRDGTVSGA
UniProt P35367, whole entry: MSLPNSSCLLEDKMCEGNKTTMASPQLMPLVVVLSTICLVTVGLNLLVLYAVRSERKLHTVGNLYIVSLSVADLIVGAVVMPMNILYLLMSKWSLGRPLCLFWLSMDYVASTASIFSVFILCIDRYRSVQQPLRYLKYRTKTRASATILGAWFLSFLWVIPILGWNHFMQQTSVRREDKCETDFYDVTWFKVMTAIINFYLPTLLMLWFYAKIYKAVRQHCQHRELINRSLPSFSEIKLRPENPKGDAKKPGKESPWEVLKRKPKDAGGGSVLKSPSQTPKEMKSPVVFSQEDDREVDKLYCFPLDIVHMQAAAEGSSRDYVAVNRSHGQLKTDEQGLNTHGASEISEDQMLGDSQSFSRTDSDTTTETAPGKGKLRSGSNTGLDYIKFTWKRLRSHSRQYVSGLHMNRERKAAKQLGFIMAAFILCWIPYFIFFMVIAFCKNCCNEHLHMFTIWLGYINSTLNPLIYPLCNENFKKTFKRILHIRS
UniProt P41595, whole entry: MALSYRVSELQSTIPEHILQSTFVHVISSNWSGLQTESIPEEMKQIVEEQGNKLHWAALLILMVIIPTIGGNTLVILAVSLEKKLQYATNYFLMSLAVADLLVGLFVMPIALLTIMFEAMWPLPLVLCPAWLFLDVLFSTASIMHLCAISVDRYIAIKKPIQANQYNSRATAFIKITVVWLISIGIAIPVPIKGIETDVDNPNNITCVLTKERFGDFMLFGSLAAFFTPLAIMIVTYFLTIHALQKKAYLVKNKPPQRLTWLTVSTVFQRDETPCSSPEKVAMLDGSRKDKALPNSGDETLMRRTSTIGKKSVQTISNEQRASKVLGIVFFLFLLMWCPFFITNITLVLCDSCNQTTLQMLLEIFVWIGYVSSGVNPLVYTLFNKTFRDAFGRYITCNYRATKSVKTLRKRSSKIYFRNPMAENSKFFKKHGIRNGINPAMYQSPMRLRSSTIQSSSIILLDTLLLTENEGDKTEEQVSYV
UniProt P35348, whole entry: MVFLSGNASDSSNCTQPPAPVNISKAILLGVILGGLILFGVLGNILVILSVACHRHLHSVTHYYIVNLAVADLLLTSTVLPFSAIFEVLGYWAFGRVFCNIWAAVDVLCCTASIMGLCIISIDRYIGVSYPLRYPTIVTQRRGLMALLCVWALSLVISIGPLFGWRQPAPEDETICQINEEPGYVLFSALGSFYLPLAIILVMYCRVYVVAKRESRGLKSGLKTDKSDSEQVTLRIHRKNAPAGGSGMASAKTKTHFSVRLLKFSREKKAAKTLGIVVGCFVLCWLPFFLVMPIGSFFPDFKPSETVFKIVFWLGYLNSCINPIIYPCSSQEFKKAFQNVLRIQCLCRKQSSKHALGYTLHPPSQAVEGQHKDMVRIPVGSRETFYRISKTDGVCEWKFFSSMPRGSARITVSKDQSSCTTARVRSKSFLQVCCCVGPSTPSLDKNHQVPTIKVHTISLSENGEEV
UniProt P08913, whole entry: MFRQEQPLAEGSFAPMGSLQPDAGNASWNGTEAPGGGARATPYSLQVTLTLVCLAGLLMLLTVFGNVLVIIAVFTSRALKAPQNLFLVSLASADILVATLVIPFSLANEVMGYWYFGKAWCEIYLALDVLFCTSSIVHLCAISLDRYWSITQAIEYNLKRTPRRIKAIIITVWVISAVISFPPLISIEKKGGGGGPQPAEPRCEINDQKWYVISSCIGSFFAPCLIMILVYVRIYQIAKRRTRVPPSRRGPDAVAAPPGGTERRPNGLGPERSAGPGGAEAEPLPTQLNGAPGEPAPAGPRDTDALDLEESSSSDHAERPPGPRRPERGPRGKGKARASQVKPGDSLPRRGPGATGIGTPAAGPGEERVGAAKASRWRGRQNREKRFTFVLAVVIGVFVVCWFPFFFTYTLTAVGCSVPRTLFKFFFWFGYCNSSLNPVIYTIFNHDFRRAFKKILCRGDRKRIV
UniProt P21728, whole entry: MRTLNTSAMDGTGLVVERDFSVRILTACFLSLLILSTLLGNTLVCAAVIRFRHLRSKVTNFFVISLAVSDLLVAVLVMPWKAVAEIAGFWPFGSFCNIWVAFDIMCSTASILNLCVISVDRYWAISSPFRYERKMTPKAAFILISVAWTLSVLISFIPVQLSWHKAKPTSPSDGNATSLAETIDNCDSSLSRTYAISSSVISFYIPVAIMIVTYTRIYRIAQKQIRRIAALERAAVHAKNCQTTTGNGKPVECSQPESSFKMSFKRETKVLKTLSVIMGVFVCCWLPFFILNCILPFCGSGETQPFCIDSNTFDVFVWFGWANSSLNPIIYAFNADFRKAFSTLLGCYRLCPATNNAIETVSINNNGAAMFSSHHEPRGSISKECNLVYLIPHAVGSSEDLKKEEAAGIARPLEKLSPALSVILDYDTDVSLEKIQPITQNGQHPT
UniProt P25021, whole entry: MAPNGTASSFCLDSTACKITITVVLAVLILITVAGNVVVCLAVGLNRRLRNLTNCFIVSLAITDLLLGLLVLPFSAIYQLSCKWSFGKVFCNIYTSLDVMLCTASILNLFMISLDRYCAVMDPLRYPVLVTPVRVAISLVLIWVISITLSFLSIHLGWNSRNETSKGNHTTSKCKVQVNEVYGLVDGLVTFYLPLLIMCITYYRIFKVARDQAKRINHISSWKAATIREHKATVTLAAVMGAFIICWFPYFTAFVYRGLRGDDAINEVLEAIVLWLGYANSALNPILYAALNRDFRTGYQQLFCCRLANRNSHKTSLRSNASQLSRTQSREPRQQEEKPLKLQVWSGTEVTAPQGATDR
UniProt P21554, whole entry: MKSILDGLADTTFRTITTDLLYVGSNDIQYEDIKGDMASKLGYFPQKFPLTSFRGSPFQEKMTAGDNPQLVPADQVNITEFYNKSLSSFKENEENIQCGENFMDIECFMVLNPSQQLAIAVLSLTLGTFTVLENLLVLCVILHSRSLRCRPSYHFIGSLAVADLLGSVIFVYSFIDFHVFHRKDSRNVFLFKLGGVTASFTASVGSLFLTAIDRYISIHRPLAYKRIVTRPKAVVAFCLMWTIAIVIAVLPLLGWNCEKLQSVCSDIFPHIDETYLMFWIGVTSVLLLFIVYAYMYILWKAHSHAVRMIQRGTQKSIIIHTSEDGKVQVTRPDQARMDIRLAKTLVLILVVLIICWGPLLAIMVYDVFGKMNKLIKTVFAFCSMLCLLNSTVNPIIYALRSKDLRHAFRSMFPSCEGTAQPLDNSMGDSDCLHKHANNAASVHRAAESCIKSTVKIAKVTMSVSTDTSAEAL
UniProt P34972, whole entry: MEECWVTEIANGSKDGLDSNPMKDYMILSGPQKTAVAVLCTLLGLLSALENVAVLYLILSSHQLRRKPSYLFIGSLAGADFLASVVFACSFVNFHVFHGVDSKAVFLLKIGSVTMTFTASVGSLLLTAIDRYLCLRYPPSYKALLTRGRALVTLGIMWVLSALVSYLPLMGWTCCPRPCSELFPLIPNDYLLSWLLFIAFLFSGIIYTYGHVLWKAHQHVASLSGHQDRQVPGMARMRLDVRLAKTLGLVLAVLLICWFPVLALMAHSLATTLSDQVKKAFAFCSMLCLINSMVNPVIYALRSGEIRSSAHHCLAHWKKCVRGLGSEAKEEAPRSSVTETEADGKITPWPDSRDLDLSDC
UniProt P34969, whole entry: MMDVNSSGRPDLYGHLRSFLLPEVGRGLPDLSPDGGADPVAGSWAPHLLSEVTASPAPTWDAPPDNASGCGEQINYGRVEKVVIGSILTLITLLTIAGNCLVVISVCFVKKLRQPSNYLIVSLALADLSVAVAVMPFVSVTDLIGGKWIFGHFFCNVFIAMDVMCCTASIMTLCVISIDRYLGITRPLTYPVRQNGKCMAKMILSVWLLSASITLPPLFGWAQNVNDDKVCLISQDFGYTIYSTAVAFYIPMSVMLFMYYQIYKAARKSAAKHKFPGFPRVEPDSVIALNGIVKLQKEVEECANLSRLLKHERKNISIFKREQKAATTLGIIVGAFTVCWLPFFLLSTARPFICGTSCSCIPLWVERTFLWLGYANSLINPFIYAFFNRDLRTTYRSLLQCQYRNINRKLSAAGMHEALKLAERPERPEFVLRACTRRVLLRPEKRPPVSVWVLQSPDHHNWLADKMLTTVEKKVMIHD
UniProt P07550, whole entry: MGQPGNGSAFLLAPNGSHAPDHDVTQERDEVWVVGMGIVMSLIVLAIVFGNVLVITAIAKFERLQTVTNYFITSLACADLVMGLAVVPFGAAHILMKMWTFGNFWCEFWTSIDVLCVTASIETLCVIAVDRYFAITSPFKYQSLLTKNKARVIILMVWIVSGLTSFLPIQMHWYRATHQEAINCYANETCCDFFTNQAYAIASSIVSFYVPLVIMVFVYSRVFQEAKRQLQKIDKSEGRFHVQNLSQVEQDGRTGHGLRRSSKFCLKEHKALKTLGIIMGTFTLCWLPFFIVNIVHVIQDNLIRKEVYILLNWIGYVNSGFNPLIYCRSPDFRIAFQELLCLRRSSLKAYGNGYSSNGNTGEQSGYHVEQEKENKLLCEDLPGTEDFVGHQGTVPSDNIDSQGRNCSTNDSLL
UniProt P08908, whole entry: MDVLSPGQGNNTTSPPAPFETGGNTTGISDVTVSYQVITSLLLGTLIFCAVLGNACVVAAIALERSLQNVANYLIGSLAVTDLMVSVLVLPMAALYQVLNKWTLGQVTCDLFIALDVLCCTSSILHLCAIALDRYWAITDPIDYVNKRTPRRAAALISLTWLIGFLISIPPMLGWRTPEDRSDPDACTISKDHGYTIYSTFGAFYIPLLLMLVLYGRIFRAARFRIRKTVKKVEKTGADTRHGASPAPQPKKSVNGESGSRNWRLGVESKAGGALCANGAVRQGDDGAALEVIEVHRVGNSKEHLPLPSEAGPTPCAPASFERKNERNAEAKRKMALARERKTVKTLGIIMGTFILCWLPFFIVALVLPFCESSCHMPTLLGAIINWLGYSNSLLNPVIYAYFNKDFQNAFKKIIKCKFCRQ
UniProt Q60492, whole entry: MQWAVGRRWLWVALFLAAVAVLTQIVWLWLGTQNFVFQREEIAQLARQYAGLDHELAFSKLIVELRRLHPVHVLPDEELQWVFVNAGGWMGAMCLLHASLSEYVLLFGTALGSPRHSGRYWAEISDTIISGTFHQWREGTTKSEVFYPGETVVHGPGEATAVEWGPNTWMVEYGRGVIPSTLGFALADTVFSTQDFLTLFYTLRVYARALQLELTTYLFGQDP

According to ChEMBL document CHEMBL5375969, “A Novel Bifunctional μOR Agonist and σ1R Antagonist with Potent Analgesic Responses and Reduced Adverse Effects” (2023):

Assays:
Mu-type opioid receptor = Mu-type opioid receptor (Homo sapiens, UniProt P35372); assay: Agonist activity at mu-opioid receptor (unknown origin) expressed in CHO cells assessed as inhibition of intracellular cAMP production measured after 45 mins by HTRF-based assay
[1] = Half life in ICR mouse at 10 mg/kg, sc measured for 24 hrs by LC-MS/MS analysis; settings: in vivo
Cytochrome P450 2C9 = Cytochrome P450 2C9 (Homo sapiens, UniProt P11712); assay: Inhibition of human CYP2C9 using diclofenac as substrate at 10 uM by LC-MS/MS analysis
Cytochrome P450 3A4 = Cytochrome P450 3A4 (Homo sapiens, UniProt P08684); assay: Inhibition of human CYP3A4 using testosterone as substrate at 10 uM by LC-MS/MS analysis
Histamine H1 receptor = Histamine H1 receptor (Homo sapiens, UniProt P35367); assay: Agonist activity at H1 receptor (unknown origin) expressed in HEK cells assessed as inositol phosphate accumulation by AlphaLISA assay
[2] = biological target: 5-hydroxytryptamine receptor 2B (Homo sapiens, UniProt P41595); assay: Agonist activity at 5-HT2B receptor (unknown origin) expressed in CHO cells assessed as inositol phosphate accumulation by AlphaLISA assay
[3] = biological target: Alpha-1A adrenergic receptor (Homo sapiens, UniProt P35348); assay: Agonist activity at alpha1A receptor (unknown origin) expressed in HEK cells assessed as inositol phosphate accumulation by AlphaLISA assay
[4] = biological target: Alpha-2A adrenergic receptor (Homo sapiens, UniProt P08913); assay: Agonist activity at alpha2A receptor (unknown origin) expressed in HEK cells assessed as inositol phosphate accumulation by AlphaLISA assay
D(1A) dopamine receptor = D(1A) dopamine receptor (Homo sapiens, UniProt P21728); assay: Agonist activity at D1 receptor (unknown origin) expressed in CHO cells assessed as inhibition of intracellular cAMP production measured after 45 mins by HTRF-based assay
Histamine H2 receptor = Histamine H2 receptor (Homo sapiens, UniProt P25021); assay: Agonist activity at H2 receptor (unknown origin) expressed in CHO cells assessed as inhibition of intracellular cAMP production measured after 45 mins by HTRF-based assay
Cannabinoid receptor 1 = Cannabinoid receptor 1 (Homo sapiens, UniProt P21554); assay: Agonist activity at CB1 receptor (unknown origin) expressed in CHO cells assessed as inhibition of intracellular cAMP production measured after 45 mins by HTRF-based assay
Cannabinoid receptor 2 = Cannabinoid receptor 2 (Homo sapiens, UniProt P34972); assay: Agonist activity at CB2 receptor (unknown origin) expressed in CHO cells assessed as inhibition of intracellular cAMP production measured after 45 mins by HTRF-based assay
[5] = biological target: 5-hydroxytryptamine receptor 7 (Homo sapiens, UniProt P34969); assay: Agonist activity at 5-HT7 receptor (unknown origin) expressed in CHO cells assessed as inhibition of intracellular cAMP production measured after 45 mins by HTRF-based assay
[6] = biological target: Beta-2 adrenergic receptor (Homo sapiens, UniProt P07550); assay: Agonist activity at beta2 receptor (unknown origin) expressed in CHO cells assessed as inhibition of intracellular cAMP production measured after 45 mins by HTRF-based assay
[7] = biological target: 5-hydroxytryptamine receptor 1A (Homo sapiens, UniProt P08908); assay: Agonist activity at 5-HT1A receptor (unknown origin) expressed in CHO cells assessed as inhibition of intracellular cAMP production measured after 45 mins by HTRF-based assay
[8] = biological target: Sigma non-opioid intracellular receptor 1 (Cavia porcellus, UniProt Q60492); assay: Displacement of [3H]-pentazocine from sigma1 receptor in guinea pig brain membrane by radioligand binding assay
[9] = Toxicity in sc dosed ICR mouse assessed as inhibition of GI transit at 1.5X analgesic ED50 dose measured after 30 mins; settings: in vivo, 0.5 h

Structure (SMILES): CC(=O)N(CC(C)N1CCN(c2ccccc2)CC1)c1ccccn1 (configuration not stated)
- EC50 (Mu-type opioid receptor): > 1 µM

Structure (SMILES): CC(CN(C(=O)c1cccs1)c1ccccn1)N1CCN(c2ccccc2)CC1 (configuration not stated)
- EC50 (Mu-type opioid receptor): > 1 µM

Structure (SMILES): CCC(=O)N(CC(CC)N1CCC(c2ccccc2)CC1)c1ccccn1 (configuration not stated)
- t1/2 [1]: 54.6 min
- inhibition (INH) (Cytochrome P450 2C9): -0.35%
- inhibition (INH) (Cytochrome P450 3A4): 5.57%
- EC50 (Histamine H1 receptor): > 1 µM
- EC50 [2]: > 1 µM
- EC50 [3]: > 1 µM
- EC50 [4]: > 1 µM
- EC50 (D(1A) dopamine receptor): > 1 µM
- EC50 (Histamine H2 receptor): > 1 µM
- EC50 (Cannabinoid receptor 1): > 1 µM
- EC50 (Cannabinoid receptor 2): > 1 µM
- EC50 [5]: > 1 µM
- EC50 [6]: > 1 µM
- EC50 [7]: > 1 µM

Structure (SMILES): CC(CN(C(=O)c1ccco1)c1ccccn1)N1CCN(c2ccccc2)CC1 (configuration not stated)
- EC50 (Mu-type opioid receptor): > 1 µM

Structure (SMILES): Cc1ccc(N2CCN(C(C)CN(C(=O)c3ccco3)c3ccccn3)CC2)cc1 (configuration not stated)
- EC50 (Mu-type opioid receptor): > 1 µM

Structure (SMILES): CCC(=O)N(CC(C)(C)N1CCN(c2ccccc2)CC1)c1ccccn1
- EC50 (Mu-type opioid receptor): > 1 µM

Structure (SMILES): CCC(=O)N(CCN1CCN(C(=O)c2ccccc2)CC1)c1ccccn1
- EC50 (Mu-type opioid receptor): > 1 µM

Structure (SMILES): CCC(=O)N(CC(C)N1CCN(c2ccccc2)CC1)c1ccccn1 (configuration not stated)
- Ki [8]: 8.3 µM
- Activity [9]: Non-Toxic
